In paper PMC3781056, “New Pyrazolopyrimidine Inhibitors of Protein Kinase D as Potent Anticancer Agents for Prostate Cancer Cells” (PLoS ONE, 2013):
Several values for one entry are separate records, joined by “and”; a condition that tells them apart may be missing. Identical values can stand only once.

Molecular target: T1, endogenous PKD1 in LNCaP prostate cancer cells (Homo sapiens, UniProt Q15139)
T1 construct: endogenous in cells; host or cells: LNCaP
T1 sequence (Q15139 1-912): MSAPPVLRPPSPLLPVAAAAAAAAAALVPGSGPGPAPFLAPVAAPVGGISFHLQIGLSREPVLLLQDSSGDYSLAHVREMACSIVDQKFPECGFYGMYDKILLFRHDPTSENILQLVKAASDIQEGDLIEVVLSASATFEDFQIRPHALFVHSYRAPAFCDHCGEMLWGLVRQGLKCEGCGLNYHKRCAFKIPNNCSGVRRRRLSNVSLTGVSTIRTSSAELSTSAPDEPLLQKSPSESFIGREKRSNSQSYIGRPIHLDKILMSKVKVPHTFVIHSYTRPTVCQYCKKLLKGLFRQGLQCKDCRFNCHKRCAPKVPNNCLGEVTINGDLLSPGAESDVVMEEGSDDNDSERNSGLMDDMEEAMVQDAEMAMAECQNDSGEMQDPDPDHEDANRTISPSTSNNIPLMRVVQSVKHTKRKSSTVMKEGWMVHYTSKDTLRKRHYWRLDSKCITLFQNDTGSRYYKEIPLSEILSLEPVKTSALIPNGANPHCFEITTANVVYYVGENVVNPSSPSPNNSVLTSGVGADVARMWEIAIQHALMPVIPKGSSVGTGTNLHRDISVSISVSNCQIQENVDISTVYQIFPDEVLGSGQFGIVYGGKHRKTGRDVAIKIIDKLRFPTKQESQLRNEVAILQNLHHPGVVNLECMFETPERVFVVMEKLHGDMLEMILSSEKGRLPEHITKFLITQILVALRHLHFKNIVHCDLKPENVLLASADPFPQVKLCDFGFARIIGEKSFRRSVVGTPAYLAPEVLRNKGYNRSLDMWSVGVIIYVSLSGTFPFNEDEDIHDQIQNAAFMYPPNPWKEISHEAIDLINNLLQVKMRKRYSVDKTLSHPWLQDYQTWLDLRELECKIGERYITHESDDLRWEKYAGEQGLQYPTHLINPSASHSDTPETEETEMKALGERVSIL
Assay: PMA-induced endogenous PKD1 activation in LNCaP cells (immunoblot)
Format: cell-based
Conditions: 45 min pretreatment, PMA 10 nM 20 min, densitometry, read-out: IC50 for inhibition of autophosphorylation at p-Ser916-PKD1
From the text: In this study, we examined whether 1-NA-PP1 was cell permeable and capable of target inhibition in intact cells. The effect of 1-NA-PP1 on 12-myristate 13-acetate (PMA)-induced endogenous PKD1 activation in LNCaP prostate cancer cells was examined as previously described, [23], [28]. PMA activates PKD through PKC-dependent trans-phosphorylation of Ser744/748 (S^744/748) in the activation loop followed by autophosphorylation of PKD1 on Ser916 (S^916) in the C-terminus, [30]. PKD1 activity correlates well with the level of phospho-S^916 (p- S^916). We therefore used p-S^916 to monitor PKD activity and p-S^744/748 of PKD1 to determine if the compound interfered with PKC-induced trans-phosphorylation by possibly inhibiting PKC. […] In contrast, PKC-dependent trans-phosphorylation at Ser^744/748 was unaffected by 1-NA-PP1. Thus, 1-NA-PP1 specifically abrogated PKD1 activity without blocking PKC-mediated trans-phosphorylation.
Figure 5 Inhibition of PMA-induced activation of endogenous PKD1 by 1-NA-PP1 in cells. […] Western blots were quantified using densitometry analysis. […]
The prostate cancer cell lines (LNCaP, DU145, and PC3) were obtained from the American Type Culture Collection (ATCC). […] Protein concentration was determined using the BCA Protein Assay kit (Pierce) and then equal amounts of protein were subjected to SDS-PAGE followed by electrotransfer to nitrocellulose membranes. […]

SMILES: CC(C)(C)n1nc(-c2cccc3ccccc23)c2c(N)ncnc21 [Compound 1-NA-PP1, 1-(t-Butyl)-3-(naphthalen-1-yl)-1H-pyrazolo[3,4-d]pyrimidin-4-amine]
- IC50: 22.5 µM and ~20 µM
